Assays:
[1] = molecular target: delta-opioid receptor (Rattus norvegicus, UniProt P33533); assay: Rat Brain Delta-Opioid Receptor Binding Assay; set-up: species or system rat (Wistar); conditions: read-out: Delta K; rat forebrain homogenate, [3H]DPDPE, 25° C., pH 7.4
[2] = Mouse Acetylcholine Bromide-induced Abdominal Constriction Assay; conditions: dose about 30 μmole/Kg p.o.; 30 min before 5.5 mg/kg i.p. acetylcholine bromide; 10 min observation
Experimental: Mouse Acetylcholine Bromide-induced Abdominal Constriction Assay
The mouse acetylcholine-induced abdominal constriction assay, as described by Collier et al. in Brit. J. Pharmacol. Chem. Ther., 32: 295-310, 1968 with minor modifications, was used to assess analgesic potency of the compounds of Formula (I). The test drugs or appropriate vehicles were administered orally (p.o.) and 30 min later the animal received an intraperitoneal (i.p.) injection of 5.5 mg/kg acetylcholine bromide (Matheson, Coleman and Bell, East Rutherford, N.J.). The mice were then placed in groups of three into glass bell jars and observed for a ten min observation period for the occurrence of an abdominal constriction response (defined as a wave of constriction and elongation passing caudally along the abdominal wall, accompanied by a twisting of the trunk and followed by extension of the hind limbs).
As shown in Table 2 for the compounds of the present invention, the percent inhibition of this response to a nociceptive stimulus (equated to % analgesia) was calculated as follows: [formula]

Protein sequences, listed by entry. Tags and fused reporters are not part of them.
UniProt P33533, whole entry: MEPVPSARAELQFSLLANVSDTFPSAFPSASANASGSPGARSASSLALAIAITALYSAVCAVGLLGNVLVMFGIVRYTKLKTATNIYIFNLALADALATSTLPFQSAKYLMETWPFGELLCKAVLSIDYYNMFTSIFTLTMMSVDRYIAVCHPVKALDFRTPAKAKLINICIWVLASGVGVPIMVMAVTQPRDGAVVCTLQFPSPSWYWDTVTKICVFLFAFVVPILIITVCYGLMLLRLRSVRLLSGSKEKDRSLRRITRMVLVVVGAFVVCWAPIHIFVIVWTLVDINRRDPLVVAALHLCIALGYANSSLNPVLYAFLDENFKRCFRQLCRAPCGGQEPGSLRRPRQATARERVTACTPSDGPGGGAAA

| SMILES | Ki [1] [nM] | percent inhibition of abdominal constriction response (% analgesia) [2] [%] |
| --- | --- | --- |
| CCN(CC)C(=O)c1ccc(N(c2ccccc2)[C@H]2C[C@H]3CC[C@@H](C2)N3)cc1 | 0.36 | – |
| CCN(CC)C(=O)c1ccc(N(c2ccccc2)[C@H]2C[C@H]3CC[C@@H](C2)N3C)cc1 | 6.59 | – |
| CCCN(CCC)C(=O)c1ccc(N(c2ccccc2)[C@@H]2C[C@H]3CC[C@@H](C2)N3C)cc1 | 131 | – |
| CCN(CC)C(=O)c1ccc(N(c2cccc(OC)c2)[C@H]2C[C@H]3CC[C@@H](C2)N3C)cc1 | 20.6 | – |
| CCCN1[C@@H]2CC[C@H]1C[C@@H](N(c1ccccc1)c1ccc(C(=O)N(CC)CC)cc1)C2 | 3 | 60 |
| CCN(CC)C(=O)c1ccc(N(c2ccccc2)[C@H]2C[C@H]3CC[C@@H](C2)N3CCc2ccccc2)cc1 | 8 | – |

Source: patent publication US6306876A, “4-[aryl(8-azabicyclo[3.2.1]octan-3-yl)]aminobenzoic acid derivatives” (priority 2000, dated 2001)
